# Laboratory results: PubChem BioAssay AID504357 (The Scripps Research Institute Molecular Screening Center, 2011)
# The chains behind the UniProt entries cited, without tags or fusion partners.
# UniProt P35372, whole entry, looked up: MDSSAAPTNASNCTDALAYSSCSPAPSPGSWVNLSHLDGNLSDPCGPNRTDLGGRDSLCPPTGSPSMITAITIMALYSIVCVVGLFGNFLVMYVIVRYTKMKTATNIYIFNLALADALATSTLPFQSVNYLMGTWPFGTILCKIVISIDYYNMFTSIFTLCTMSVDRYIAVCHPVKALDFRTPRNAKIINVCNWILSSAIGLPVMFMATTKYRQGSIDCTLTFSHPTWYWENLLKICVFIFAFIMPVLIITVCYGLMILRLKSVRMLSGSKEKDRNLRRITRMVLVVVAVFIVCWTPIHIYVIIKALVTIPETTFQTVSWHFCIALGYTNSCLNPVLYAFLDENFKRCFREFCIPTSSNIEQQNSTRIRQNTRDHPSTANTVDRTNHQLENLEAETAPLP
# UniProt P41143, whole entry, looked up: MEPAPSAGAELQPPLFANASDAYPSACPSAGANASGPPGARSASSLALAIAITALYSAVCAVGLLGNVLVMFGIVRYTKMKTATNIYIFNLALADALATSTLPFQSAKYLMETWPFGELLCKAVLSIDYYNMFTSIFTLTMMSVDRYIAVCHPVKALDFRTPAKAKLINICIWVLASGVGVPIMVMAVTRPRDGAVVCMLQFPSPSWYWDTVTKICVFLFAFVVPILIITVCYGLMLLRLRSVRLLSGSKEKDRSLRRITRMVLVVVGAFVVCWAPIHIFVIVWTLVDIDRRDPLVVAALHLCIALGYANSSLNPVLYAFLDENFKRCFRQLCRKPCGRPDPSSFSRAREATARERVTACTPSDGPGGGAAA
# Only a part is listed here, and it is no random draw. Some structures show a salt or complex split into parts, the way the source records it. The source made the active and inactive calls. Cut-off read from the data, not from the text of the source: active = inhibition above about 22% (passing the limit was not always enough); inactive = the rest.
# Biological target: Mu-type opioid receptor (Homo sapiens) + Delta-type opioid receptor (Homo sapiens) (UniProt P35372+P41143)
# Assay: OPRM1-OPRD1 heterodimer inverse agonism – cell-based, luminescence, primary screen (AID 504357);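 note: 0% = cells with DMSO and 100% = wells without cells with DMSO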
# Conditions: cell-based MOR-DOR heterodimer luminescence, at 9.3 µM, hits give high values
row,Structure (SMILES),inhibition
1,CCN(CC)CCn1c(NCc2ccc(OC)cc2)nc2ccccc21,inactive: 6.91%
2,CCN(CC)CCCOC(=O)C(O)(c1ccccc1)c1ccccc1,inactive: 10.1%
3,Cc1ccc(S(=O)(=O)NCCC(=O)N2CCN(C/C=C/c3ccccc3)CC2)cc1,inactive: 4.28%
4,Cc1cc(C)cc(OP(C)(N)=O)c1 (stereo not given),inactive: 14.2%
5,COc1ccccc1OP(C)(=O)Nc1cc(Cl)ccc1C (stereo not given),inactive: 7.38%
6,COc1ccc(OP(C)(=O)Nc2cccc(F)c2)cc1 (stereo not given),inactive: 3.14%
7,COc1ccccc1OP(C)(=O)Nc1ccc(C)cc1 (stereo not given),inactive: 4.53%
8,Cc1ccc(NP(C)(=O)Oc2ccccc2)c(C)c1 (stereo not given),inactive: 5.44%
9,CCOC(=O)c1ccc(NP(C)(=O)Oc2ccccc2)cc1 (stereo not given),inactive: -4.64%
10,O=[N+]([O-])c1ccc2c(c1)C=Nc1ccccc1O2,inactive: -14.8%
11,CC(C)(C)c1ccc(OP(C)(=O)Nc2ccc(SC(F)(F)F)cc2)cc1 (stereo not given),inactive: -21.8%
12,Cc1cccc(C)c1OP(C)(N)=O (stereo not given),inactive: 3.89%
13,Cc1n[nH]c(C)c1S(=O)(=O)N1CCC(C(=O)N2CCn3c2nc2ccccc23)CC1,active: 37.7%
14,COc1cc(C(=O)NCC2(N3CCOCC3)CCCCC2)ccc1OCC(C)C,inactive: -1.52%
15,O=[N+]([O-])c1cc([N+](=O)[O-])c(Nc2cccnc2)c([N+](=O)[O-])c1,inactive: 4.22%
16,CP(=O)(Nc1ccccc1Br)Oc1ccccc1 (stereo not given),inactive: 16.2%
17,C=CCC1(Nc2ccccc2)CC(C)N(C)CC1C (stereo not given),inactive: 9.33%
18,COc1ccccc1OP(C)(=O)Nc1ccccc1 (stereo not given),inactive: 10.2%
19,CP(=S)(Nn1cnnc1)Oc1ccccc1 (stereo not given),inactive: 10.5%
20,CCCCOc1ccc(C(=O)NCC2(N3CCCCC3)CCCCC2)cc1OC,inactive: 1.83%
21,O=C(C1CCN(S(=O)(=O)c2cccc3cccnc23)CC1)N1CCn2c1nc1ccccc12,active: 87.4%
22,CP(=O)(Nc1ccccn1)Oc1ccc(Cl)cc1 (stereo not given),inactive: 10.4%
23,CCOC(=O)c1ccc(NP(C)(=O)Oc2ccc(OC)cc2)cc1 (stereo not given),inactive: -12.9%
24,CCOP(C)(=S)SCC(=O)NC(C)C(=O)O (stereo not given),inactive: -0.99%
25,CP(=O)(NC(=O)Nc1ccccc1)Oc1ccccc1 (stereo not given),inactive: -6.81%
26,CCc1ccc(OP(C)(=O)N2CCN(c3ccc([N+](=O)[O-])cc3)CC2)cc1 (stereo not given),inactive: 8.91%
27,Cc1cc(C)cc(OP(C)(=O)Nc2ccc(SC(F)(F)F)cc2)c1 (stereo not given),inactive: -65.4%
28,O=C(C1CCN(S(=O)(=O)c2cccc3nsnc23)CC1)N1CCn2c1nc1ccccc12,active: 84.5%

row,Structure (SMILES),inhibition
1,Cc1cccc(C)c1OP(C)(=O)Nc1ccc(SC(F)(F)F)cc1 (stereo not given),inactive: 0.33%
2,CP(=O)(Oc1ccccc1)OC(c1ccccc1)C(F)(F)F (stereo not given),inactive: 7.22%
3,Cc1nc2ccc3ccccc3c2s1.O=[N+]([O-])c1cc([N+](=O)[O-])c(O)c([N+](=O)[O-])c1,inactive: 18.4%
4,O=[N+]([O-])c1cc([N+](=O)[O-])c(-c2cnn(-c3ccccc3)c2)c([N+](=O)[O-])c1,inactive: -84.9%
5,O=[N+]([O-])c1cc([N+](=O)[O-])c(-n2nnc3ccccc32)c([N+](=O)[O-])c1,inactive: 13.4%
6,CCCOc1ccc(NP(C)(=O)Oc2ccc(Cl)cc2)cc1 (stereo not given),inactive: -13.1%
7,CP(=O)(Nc1ccc(SC(F)(F)F)cc1)Oc1ccccc1 (stereo not given),inactive: -13.6%
8,CN1CCCCC1COC(=O)C1(O)c2ccccc2CCc2ccccc21 (stereo not given),inactive: -3.94%
9,COc1ccccc1OP(C)(=O)Nc1c(C)cccc1C (stereo not given),inactive: 14.2%
10,CC1=C2N=C(C=C3N=C(C(C)=C4[N-][C@@](C)([C@@H]5N=C1[C@](C)(CCC(=O)NC[C@@H](C)OP(=O)([O-])O[C@H]1[C@@H](O)[C@@H](n6cnc7cc(C)c(C)cc76)O[C@@H]1CO)[C@H]5CC(N)=O)[C@@](C)(CC(N)=O)[C@@H]4CCC(N)=O)[C@@](C)(CC(N)=O)[C@@H]3CCC(N)=O)C(C)(C)[C@@H]2CCC(N)=O.[C-]#N.[Co+3],inactive: 13.5%
11,CN(C)C1(CNC(=O)c2ccc(S(C)(=O)=O)cc2)CCCCC1,inactive: -16.3%
12,O=[N+]([O-])c1cc([N+](=O)[O-])c(Nc2nnnn2CCO)c([N+](=O)[O-])c1,inactive: 18.4%
13,CCOC(=O)C(CC)C1=NC(C)(C)Cc2ccccc21.O=[N+]([O-])c1cc([N+](=O)[O-])c(O)c([N+](=O)[O-])c1 (stereo not given),inactive: 5.52%
14,CC1=NCCc2c1[nH]c1ccccc21.O=[N+]([O-])c1cc([N+](=O)[O-])c(O)c([N+](=O)[O-])c1,inactive: 2.48%
15,O=C(C1CCN(S(=O)(=O)c2cnc[nH]2)CC1)N1CCn2c1nc1ccccc12,active: 43.7%
16,O=C(O)c1cccc(Nc2c([N+](=O)[O-])cc([N+](=O)[O-])cc2[N+](=O)[O-])c1,inactive: 13.4%
17,O=P(Nc1nccs1)(c1ccccc1)c1nc2ccccc2s1 (stereo not given),active: 36.2%
18,Cc1ccc(C)c(NP(C)(=O)Oc2ccccc2)c1 (stereo not given),inactive: -3.51%
19,Cc1cc(C)cc(OP(C)(=O)Nc2ccccn2)c1 (stereo not given),inactive: 12.9%
20,CP(=O)(Nc1cccc(Br)c1)Oc1ccccc1 (stereo not given),inactive: 11.9%
21,CCOC(=O)c1ccc(NP(C)(=O)Oc2cc(C)cc(C)c2)cc1 (stereo not given),inactive: -2.98%
22,Cc1cc(C)cc(OP(C)(=O)Nc2ccc(C)cc2C)c1 (stereo not given),inactive: -17.1%
23,COc1cc(C(=O)NCC2(N3CCOCC3)CCCCC2)cc(Cl)c1OC(C)C,inactive: -19.6%
24,COc1ccccc1OP(C)(=O)Nc1cccc(Br)c1 (stereo not given),inactive: -5.15%
25,COc1ccc2c(c1O)-c1c(O)c(OC)cc3c1[C@H](C2)[N+](C)(C)CC3.O=[N+]([O-])c1cc([N+](=O)[O-])c([O-])c([N+](=O)[O-])c1[O-],inactive: 3.82%
26,O=C(OC1CN2CCC1CC2)c1ccc([N+](=O)[O-])cc1 (stereo not given),inactive: -20%
27,O=C(OCCN1CCN(CCOCc2ccccc2)CC1)C(O)(c1ccccc1)c1ccccc1,inactive: 5.12%
